Our source for the IC50 values is BindingDB's records for doi:10.1016/s0002-9343(98)00091-6 (Dallas Department of Veterans Affairs Medical Center, 1998).

Sequences of proteins named here, by UniProt entry; tags and fusion partners are left off.
UniProt P23219, whole entry: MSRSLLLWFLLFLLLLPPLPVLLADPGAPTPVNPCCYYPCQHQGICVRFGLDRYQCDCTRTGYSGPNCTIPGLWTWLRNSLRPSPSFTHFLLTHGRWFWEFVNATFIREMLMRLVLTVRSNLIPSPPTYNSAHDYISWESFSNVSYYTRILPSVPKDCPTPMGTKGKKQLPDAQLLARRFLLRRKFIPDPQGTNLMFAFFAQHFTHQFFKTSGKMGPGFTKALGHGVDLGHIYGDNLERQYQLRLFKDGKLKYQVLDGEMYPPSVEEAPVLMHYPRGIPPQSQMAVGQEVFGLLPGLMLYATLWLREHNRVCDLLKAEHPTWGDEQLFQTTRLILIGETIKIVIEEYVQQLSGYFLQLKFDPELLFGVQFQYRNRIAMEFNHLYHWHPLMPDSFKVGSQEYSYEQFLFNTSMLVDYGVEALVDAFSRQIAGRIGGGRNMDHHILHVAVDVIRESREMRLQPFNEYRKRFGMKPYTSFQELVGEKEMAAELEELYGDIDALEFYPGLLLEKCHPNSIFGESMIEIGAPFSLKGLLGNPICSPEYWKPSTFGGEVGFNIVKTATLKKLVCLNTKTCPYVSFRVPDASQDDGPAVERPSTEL

Bounds are passed on as bounds.

For the experiment, the target named is Prostaglandin G/H synthase 1 (Homo sapiens, UniProt P23219).

For orientation: IC50 means the point on the concentration scale where inhibition reaches its midpoint. A lower IC50 goes with greater potency in that assay.

On to `O=C(O)CCc1nc(-c2ccccc2)c(-c2ccccc2)o1` [3-(4,5-Diphenyl-oxazol-2-yl)-propionic acid], for which the IC50 was over 10 µM.
